Measured values reported in patent US5670477A, “Method to enhance permeability of the blood/brain blood/nerve bariers to therapeutic agents” (Poduslo; Joseph F., priority 1995, dated 1997).

Columns and labels:
[1] = PS and Vp of the blood-brain barrier, radioiodinated I.V. bolus; assay type: in vivo, rat (Sprague-Dawley); settings: x ± SEM
Experimental: (§1) Free radioactive iodine was separated from the radiolabeled conjugates and agents by dialysis against 0.2M NaI.
(§2) After the final blood sample was collected, the animal was sacrificed, the brain and meninges removed, and the brain dissected into the cortex, caudateputamen (neostriatum), hippocampus, thalamus, brain stem, and cerebellum. The sciatic nerve was also rapidly removed and desheathed. Tissue was lyophilized, and dry weights were determined with a microbalance and converted to respective wet weights with wet weightry weight ratios previously determined for the desheathed rat sciatic nerve and the various brain regions. […] Statistical evaluations were performed using the t-test with significance accepted at the P<0.05 level.

[2] = PS and Vp of the blood-nerve barrier, radioiodinated I.V. bolus; assay type: in vivo, rat (Sprague-Dawley)
Experimental: as §1, §2

Row | Substance | PS of the BBB ([1]; brain stem) [ml/sec × 10^6] | Vp of the BBB ([1]; brain stem) [µL/g] | PS of the BBB ([1]; caudate-putamen) [ml/sec × 10^6] | Vp of the BBB ([1]; caudate-putamen) [µL/g] | PS of the BBB ([1]; cerebellum) [ml/sec × 10^6] | Vp of the BBB ([1]; cerebellum) [µL/g] | Vp of the BBB ([1]; cortex) [µL/g] | PS of the BBB ([1]; hippocampus) [ml/sec × 10^6] | Vp of the BBB ([1]; hippocampus) [µL/g] | PS of the BBB ([1]; thalamus) [ml/sec × 10^6] | Vp of the BBB ([1]; thalamus) [µL/g] | PS of the BNB ([2]; nerve, x ± SEM) [ml/g/sec × 10^6] | Vp (residual plasma volume) of the BNB ([2]; nerve, x ± SEM) [µL/g] | PS of the BNB, RI vs. native protein ([2]; nerve) | Vp of the BNB, RI vs. native protein ([2]; nerve) | PS of the BNB ([2]; nerve / endoneurium) [mL/s]
1 | ALB: Human albumin (Mr =67,000) isolated from normal human plasma | 0.43 ± 0.03 | 10.83 ± 0.63 | 0.11 ± 0.02 | 4.99 ± 0.49 | 0.39 ± 0.06 | 11.94 ± 0.94 | 4.85 ± 0.59 | 0.20 ± 0.02 | 6.23 ± 0.30 | 0.23 ± 0.03 | 8.02 ± 0.39 | 0.19 ± 0.03 | 1.86 ± 0.12 |  |  | 
2 | SPD-ALB: albumin modified with spermidine using water-soluble carbodiimide at pH 4.7 |  |  |  |  |  |  |  |  |  |  |  | 31.32 ± 5.43 | 3.15 ± 0.72 | 164.8 | 1.7 | 3.13e-05
